In this experiment the target is SARS-CoV-2 3CLpro (Severe acute respiratory syndrome coronavirus 2, UniProt P0DTD1). In kind it is biochemical.

As to `O=C(O)COCCN1CCN(C(c2ccccc2)c2ccc(Cl)cc2)CC1` (centres unmarked) [Cetirizine], the “SARS-CoV-2 3CLpro inhibitor grade in words” value is “moderate”. As for `CO[C@H]1C[C@@H]2CC[C@@H](C)[C@@](O)(O2)C(=O)C(=O)N2CCCC[C@H]2C(=O)O[C@H]([C@H](C)C[C@@H]2CC[C@@H](O)[C@H](OC)C2)CC(=O)[C@H](C)/C=C(\C)[C@@H](O)[C@@H](OC)C(=O)[C@H](C)C[C@H](C)/C=C/C=C/C=C/1C` [Sirolimus (Rapamycin), Sirolimus], the entry is “moderate”.
